# Test results from patent US20130060010A1.
# Molecular target: extracellular soluble domain of the human EGFR (sEGFR) (human) (UniProt P00533)
# Assay: SPR (Biacore 3000), 425 immobilised on CM5 chip (about 200 RU), sEGFR injected, 1:1 model with mass transport
substance,measurement,value
"mAb 425 (murine monoclonal antibody, EMD55900)",Kd,0.0323 µM
